Measurements reported in publication PMC8920630, “Development and Optimization of Nanoemulsion from Ethanolic Extract of Centella asiatica (NanoSECA) Using D-Optimal Mixture Design to Improve Blood-Brain Barrier Permeability” (Evidence-based Complementary and Alternative Medicine : eCAM, 2022).

Assays:
[1] = PAMPA-BBB, prediction of CNS permeability
[2] = test system: primary porcine brain endothelial cells (PBECs); conditions: cited from earlier work
[3] = set-up: method as in PMID 27992940; conditions: cited from earlier work

Asiaticoside
PAMPA-BBB (Pe) Experimental permeability ([1]; PBS: DMSO (95 : 5), 18 h, mean ± SEM): 0.26 ± 1.0 10^−6 cm s^−1
Prediction of CNS penetration ([1]; class from experimental Pe, limits of Di et al., 2003): CNS− (CNS−, low BBB permeation predicted; Pe, 10–6 cm s^−1 < 2.0)
BBB permeability in in vitro BBB model [2]: highly BBB permeable
Apparent oral bioavailability [3]: less than 1%
